One test deals with T1, recombinant murine JAG1 (Mus musculus, UniProt Q9QXX0).
T1 construct: JAG1, murine, recombinant; also called rmJAG1
Description: ELISA; antigens immobilised in 96-well plates (5 µg/mL in PBS, 16 h, 4 °C); serial dilutions of Abs starting from 200 µg/mL. The conditions noted are these: both partners purified.

Protein sequences, listed by entry. Tags and fused reporters are not part of them. Residues count along the entry.
UniProt Q9QXX0, 34-1218: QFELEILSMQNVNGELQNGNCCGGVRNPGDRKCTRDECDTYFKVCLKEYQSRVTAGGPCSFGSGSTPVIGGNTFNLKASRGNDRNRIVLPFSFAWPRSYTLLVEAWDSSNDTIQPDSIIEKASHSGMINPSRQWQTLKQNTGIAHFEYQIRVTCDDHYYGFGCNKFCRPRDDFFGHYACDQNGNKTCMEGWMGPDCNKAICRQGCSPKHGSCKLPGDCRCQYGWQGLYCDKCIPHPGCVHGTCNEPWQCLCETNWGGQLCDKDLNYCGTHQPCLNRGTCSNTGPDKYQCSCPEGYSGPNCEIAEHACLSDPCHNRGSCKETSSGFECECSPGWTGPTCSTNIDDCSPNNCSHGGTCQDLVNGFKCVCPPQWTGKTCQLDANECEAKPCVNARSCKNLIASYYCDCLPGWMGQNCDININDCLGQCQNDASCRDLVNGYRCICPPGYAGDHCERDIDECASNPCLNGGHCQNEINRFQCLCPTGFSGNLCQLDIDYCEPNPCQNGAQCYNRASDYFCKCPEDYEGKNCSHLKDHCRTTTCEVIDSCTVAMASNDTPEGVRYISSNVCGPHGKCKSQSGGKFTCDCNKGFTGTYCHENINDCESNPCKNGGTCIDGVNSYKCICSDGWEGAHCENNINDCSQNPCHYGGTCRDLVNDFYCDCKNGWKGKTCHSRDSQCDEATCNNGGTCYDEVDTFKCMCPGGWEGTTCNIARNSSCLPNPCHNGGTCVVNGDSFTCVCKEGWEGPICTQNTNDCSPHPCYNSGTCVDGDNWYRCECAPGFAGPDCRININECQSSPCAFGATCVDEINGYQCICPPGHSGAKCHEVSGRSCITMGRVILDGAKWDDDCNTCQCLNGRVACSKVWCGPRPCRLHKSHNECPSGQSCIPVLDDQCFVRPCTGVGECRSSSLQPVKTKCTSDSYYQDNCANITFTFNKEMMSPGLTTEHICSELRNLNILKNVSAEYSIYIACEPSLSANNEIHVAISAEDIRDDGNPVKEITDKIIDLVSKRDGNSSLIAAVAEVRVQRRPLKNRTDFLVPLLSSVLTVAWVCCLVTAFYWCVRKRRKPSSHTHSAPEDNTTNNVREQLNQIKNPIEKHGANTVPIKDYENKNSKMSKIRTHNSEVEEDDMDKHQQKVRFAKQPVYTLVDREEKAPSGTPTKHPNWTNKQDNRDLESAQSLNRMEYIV
UniProt Q9Y219, 24-1238: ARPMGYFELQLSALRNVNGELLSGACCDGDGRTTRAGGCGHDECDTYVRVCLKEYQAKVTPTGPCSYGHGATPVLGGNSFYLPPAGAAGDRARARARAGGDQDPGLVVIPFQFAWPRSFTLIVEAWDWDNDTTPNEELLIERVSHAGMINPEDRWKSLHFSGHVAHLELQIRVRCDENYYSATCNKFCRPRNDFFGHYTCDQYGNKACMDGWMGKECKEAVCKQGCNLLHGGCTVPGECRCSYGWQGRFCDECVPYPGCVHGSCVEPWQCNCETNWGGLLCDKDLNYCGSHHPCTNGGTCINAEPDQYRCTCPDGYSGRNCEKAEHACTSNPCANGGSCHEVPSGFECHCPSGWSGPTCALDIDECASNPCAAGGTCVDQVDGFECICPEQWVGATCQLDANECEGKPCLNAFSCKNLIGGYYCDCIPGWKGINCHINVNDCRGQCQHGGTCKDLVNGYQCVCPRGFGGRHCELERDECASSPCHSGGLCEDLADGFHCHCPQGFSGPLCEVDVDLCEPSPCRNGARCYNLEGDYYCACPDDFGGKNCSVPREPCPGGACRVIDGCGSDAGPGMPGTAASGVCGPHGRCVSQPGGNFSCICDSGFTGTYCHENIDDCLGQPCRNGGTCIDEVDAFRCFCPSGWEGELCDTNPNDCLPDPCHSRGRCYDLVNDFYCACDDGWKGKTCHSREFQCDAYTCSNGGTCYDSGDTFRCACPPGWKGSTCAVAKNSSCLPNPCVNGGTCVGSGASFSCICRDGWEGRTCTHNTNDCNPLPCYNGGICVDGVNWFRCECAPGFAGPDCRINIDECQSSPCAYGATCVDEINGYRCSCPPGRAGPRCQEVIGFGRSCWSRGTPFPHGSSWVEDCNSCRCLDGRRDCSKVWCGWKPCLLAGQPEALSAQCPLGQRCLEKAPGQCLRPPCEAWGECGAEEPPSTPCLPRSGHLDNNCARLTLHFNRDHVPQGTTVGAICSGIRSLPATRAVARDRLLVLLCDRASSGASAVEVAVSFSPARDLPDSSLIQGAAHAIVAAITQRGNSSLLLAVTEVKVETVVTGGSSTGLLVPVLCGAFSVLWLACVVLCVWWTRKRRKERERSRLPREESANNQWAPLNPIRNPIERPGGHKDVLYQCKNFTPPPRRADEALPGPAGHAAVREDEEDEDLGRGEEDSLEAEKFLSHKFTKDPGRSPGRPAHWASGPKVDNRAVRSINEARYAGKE
UniProt O00548, 18-723: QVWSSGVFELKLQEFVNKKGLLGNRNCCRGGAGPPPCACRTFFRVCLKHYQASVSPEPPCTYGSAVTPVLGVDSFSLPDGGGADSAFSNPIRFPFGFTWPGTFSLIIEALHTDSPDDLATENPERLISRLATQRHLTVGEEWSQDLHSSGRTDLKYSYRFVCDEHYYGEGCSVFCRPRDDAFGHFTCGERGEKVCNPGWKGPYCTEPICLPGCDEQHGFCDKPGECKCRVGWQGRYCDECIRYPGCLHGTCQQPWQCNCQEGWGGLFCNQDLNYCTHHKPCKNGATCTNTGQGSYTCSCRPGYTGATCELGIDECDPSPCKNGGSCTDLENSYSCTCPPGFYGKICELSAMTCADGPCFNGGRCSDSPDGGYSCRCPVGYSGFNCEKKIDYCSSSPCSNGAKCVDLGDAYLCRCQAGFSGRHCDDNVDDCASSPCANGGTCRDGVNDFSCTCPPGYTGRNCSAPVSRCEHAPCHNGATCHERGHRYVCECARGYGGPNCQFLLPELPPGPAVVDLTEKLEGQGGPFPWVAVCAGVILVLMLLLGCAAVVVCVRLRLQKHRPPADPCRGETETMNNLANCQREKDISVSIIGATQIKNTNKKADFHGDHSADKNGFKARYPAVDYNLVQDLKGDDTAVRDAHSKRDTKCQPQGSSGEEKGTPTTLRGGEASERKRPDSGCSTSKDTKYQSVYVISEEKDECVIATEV
UniProt Q9NYJ7, 27-618: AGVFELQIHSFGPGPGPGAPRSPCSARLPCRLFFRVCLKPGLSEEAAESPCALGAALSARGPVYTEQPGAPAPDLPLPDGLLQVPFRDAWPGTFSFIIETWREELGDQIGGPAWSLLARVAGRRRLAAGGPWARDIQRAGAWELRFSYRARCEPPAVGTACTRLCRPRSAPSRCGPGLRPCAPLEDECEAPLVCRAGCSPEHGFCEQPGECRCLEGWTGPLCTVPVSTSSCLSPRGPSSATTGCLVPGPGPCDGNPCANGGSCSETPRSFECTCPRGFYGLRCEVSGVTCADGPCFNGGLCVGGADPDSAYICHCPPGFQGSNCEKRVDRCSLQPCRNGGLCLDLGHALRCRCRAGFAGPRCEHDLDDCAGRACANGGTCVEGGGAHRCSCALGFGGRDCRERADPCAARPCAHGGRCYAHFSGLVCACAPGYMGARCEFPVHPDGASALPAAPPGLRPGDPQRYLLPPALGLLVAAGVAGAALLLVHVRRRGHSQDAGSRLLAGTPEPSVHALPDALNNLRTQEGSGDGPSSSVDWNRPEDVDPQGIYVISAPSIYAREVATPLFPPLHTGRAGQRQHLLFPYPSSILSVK
UniProt Q9NR61, 27-685: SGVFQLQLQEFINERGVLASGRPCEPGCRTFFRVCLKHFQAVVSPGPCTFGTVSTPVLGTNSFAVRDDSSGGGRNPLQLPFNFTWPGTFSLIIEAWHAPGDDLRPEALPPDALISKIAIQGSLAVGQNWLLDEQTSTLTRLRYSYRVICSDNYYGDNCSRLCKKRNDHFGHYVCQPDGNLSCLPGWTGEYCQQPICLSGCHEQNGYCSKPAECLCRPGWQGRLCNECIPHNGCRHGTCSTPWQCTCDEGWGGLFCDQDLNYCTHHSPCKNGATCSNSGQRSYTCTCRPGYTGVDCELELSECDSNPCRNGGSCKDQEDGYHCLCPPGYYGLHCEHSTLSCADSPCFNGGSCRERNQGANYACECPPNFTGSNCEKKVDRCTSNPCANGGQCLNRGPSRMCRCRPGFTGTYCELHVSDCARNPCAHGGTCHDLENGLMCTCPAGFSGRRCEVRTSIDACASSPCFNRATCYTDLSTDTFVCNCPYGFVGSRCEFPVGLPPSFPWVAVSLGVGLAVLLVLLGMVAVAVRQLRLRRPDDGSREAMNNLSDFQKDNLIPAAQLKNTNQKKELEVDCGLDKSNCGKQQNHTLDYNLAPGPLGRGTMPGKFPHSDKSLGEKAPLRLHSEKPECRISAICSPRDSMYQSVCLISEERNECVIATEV
UniProt P78504, 34-1067: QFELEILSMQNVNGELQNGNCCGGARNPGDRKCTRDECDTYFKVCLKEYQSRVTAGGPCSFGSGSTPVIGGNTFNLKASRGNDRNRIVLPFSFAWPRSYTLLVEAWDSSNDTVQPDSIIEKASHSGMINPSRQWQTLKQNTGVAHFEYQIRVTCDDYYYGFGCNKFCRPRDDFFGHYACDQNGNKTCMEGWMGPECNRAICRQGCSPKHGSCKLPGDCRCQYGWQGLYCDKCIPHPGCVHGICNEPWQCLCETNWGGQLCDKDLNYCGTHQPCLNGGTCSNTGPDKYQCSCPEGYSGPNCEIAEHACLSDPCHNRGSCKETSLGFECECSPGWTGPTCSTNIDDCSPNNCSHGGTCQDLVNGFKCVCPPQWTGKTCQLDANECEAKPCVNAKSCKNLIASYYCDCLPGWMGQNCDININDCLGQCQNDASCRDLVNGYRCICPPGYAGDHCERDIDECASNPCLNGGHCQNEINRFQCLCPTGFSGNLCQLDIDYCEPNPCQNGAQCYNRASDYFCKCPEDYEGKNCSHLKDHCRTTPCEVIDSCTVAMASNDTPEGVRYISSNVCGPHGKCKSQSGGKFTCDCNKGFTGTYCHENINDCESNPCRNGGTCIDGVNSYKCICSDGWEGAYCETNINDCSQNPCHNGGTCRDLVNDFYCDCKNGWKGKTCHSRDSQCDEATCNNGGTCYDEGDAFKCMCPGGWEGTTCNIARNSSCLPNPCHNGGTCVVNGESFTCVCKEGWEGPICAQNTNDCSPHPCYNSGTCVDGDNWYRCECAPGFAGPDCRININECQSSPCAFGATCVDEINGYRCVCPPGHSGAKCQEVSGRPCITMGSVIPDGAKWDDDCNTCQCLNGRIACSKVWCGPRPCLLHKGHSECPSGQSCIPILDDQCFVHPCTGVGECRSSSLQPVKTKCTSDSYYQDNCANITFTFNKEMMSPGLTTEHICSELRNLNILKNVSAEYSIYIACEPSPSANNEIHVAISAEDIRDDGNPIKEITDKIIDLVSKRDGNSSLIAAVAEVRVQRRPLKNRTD
UniProt P78504, 34-1218: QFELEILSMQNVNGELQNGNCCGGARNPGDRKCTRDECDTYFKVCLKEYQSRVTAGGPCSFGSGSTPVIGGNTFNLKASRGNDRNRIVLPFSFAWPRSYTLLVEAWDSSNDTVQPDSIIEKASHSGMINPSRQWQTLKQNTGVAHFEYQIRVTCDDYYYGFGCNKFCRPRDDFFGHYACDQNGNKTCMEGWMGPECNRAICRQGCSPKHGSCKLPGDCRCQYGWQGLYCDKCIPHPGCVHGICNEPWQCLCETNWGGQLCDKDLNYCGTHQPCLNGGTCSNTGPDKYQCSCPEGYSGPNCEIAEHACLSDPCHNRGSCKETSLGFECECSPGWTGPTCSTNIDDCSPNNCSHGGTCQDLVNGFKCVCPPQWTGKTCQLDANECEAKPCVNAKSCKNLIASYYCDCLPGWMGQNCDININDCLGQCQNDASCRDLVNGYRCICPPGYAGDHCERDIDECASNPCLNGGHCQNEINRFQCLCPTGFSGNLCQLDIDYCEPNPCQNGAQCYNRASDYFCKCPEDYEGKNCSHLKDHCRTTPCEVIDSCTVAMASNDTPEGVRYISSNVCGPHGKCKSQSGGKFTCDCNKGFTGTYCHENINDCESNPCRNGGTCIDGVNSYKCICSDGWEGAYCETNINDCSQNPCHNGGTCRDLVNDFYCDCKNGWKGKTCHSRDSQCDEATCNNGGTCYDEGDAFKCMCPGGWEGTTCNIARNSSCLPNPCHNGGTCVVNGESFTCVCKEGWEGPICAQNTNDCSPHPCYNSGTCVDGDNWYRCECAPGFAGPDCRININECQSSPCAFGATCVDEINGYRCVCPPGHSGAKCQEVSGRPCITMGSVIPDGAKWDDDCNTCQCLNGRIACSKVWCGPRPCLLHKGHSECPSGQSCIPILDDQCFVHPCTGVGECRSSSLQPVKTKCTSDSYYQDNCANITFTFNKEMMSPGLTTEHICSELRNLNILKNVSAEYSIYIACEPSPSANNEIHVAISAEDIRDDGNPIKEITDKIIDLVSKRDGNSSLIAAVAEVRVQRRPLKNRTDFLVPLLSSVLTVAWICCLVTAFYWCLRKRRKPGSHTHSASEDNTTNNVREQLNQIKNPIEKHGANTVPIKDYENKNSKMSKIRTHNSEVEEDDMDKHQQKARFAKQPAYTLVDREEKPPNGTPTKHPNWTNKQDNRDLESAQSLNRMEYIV

In another test the target is T2, recombinant human JAG2 (Homo sapiens, UniProt Q9Y219).
T2 construct: JAG2, human, recombinant; also called rhJAG2
The description is as above. The conditions noted are these: both partners purified.

For the next test, the target named is T3, recombinant human DLL1 (Homo sapiens, UniProt O00548).
T3 construct: DLL1, human, recombinant; also called rhDLL1
Described as above. The conditions noted are these: both partners purified.

Another test addresses T4, recombinant human DLL3 (Homo sapiens, UniProt Q9NYJ7).
T4 construct: DLL3, human, recombinant; also called rhDLL3
Described as above. The conditions noted are these: both partners purified.

The next test has as its target T5, recombinant human DLL4 (Homo sapiens, UniProt Q9NR61).
T5 construct: DLL4, human, recombinant; also called rhDLL4
Described as above. The conditions noted are these: both partners purified.

Test [1] deals with T6, recombinant human JAG1-ECD-Fc (Homo sapiens, UniProt P78504).
T6 construct: JAG1, human; the complete extracellular domain; also called rhJAG1-ECD-Fc
The test is described as above. The conditions noted are these: both partners purified.

Test [2] concerns the target T7, endogenous JAG1 on HepG2 cells (Homo sapiens (HepG2), UniProt P78504).
T7 construct: JAG1, endogenous on human HepG2 cells (parental and HepG2/Ctr^ko); also called endogenous hJAG1; HepG2/Ctr^ko (JAG1^+); source: endogenous, on HepG2 cells
Description: flow cytometry on cells; dose-response binding of Abs to CHO-k1/rhJAG1, CHO-k1/control and HepG2 cells; ice-cold PBS with 3% FBS. The conditions noted are these: one partner purified.

Test [3] deals with T6, recombinant human JAG1-ECD-Fc. Description: SPR; rhJAG1-ECD-Fc with anti-JAG1 Abs; details in the Supplementary Information. The conditions noted are these: both partners purified.

Data on two molecules can be found in publication PMC10046313, “Novel scFv against Notch Ligand JAG1 Suitable for Development of Cell Therapies toward JAG1-Positive Tumors” (Biomolecules, 2023).

Numbering of substitutions follows the chain as printed.

B1: anti-JAG1 monoclonal Ab J1.B5 (antibody, V domains shown)
VH: EVQLLESGGGLVQPGGSLRLSCAASGFTFSSYAMSWVRQAPGKGLEWVSTIAGSGTATDYADSVKGRFTISRDNSKNTLYLQMNSLRAEDTAVYYCAKDTYAFDYWGQGTLVTVSS
VL: DIQMTQSPSSLSASVGDRVTITCRASQSISSYLNWYQQKPGKAPKLLIYAASYLQSGVPSRFSGSGSGTDFTLTISSLQPEDFATYYCQQAYSAPSTFGQGTKVEIK
On to B1, for which the binding result was “binds” with recombinant murine JAG1; “no binding (tested: starting from 200 µg/mL)” with recombinant human JAG2; “no binding (tested: starting from 200 µg/mL)” with recombinant human DLL1; “no binding (tested: starting from 200 µg/mL)” with recombinant human DLL3; “no binding (tested: starting from 200 µg/mL)” with recombinant human DLL4. The figures for the EC50 in test [1] and in test [2] were 77.8 nM and 336 nM, respectively. Also, the Kd in test [3] is 52.2 nM.

B2: anti-JAG1 monoclonal Ab J1.F1 (antibody, V domains shown)
VH: B1 VH with A52S, G53T, T56D, A57Y, D59T, D99S, Y101A, A102Y
VL: B1 VL with Y53A, S93Y, A94D, S96T
As to B2, the binding result in the test with recombinant murine JAG1, with recombinant human JAG2, with recombinant human DLL1, with recombinant human DLL3 and in the test with recombinant human DLL4 was “no binding (tested: starting from 200 µg/mL)” each time. Moreover, the EC50 in test [1] was found to be 13.5 nM; in test [2], 5.74 nM. The Kd in test [3] was 18.6 nM.
